Measured values published in patent US20020132792A1, “Aryl-substituted indirubin derivatives, their production and use” (Schering AG, priority 2000, published 2002).
pIC50: −log10 of the molar value.

Tests used:
CDK2/CycE = CDK2/CycE (Homo sapiens, UniProt P24941); assay: CDK2/CycE kinase assay; assay type: biochemical; conditions: read-out: CDK2 IC50; recombinant CDK2/CycE-GST, histone IIIS substrate, 0.5 μm ATP, 15 minutes at 22° C.
MCF-7 cells = assay: Proliferation assay (crystal violet); conditions: read-out: MCF-7 IC50, MCF-7 human tumor cells, 4 days incubation

Structure (SMILES)	pIC50 (CDK2/CycE)	pIC50 (MCF-7 cells)
Cc1ccc2c(c1)/C(=C1/Nc3ccccc3C1=O)C(=O)N2	5.52	6.00
O=C1Nc2ccccc2C1=C1Nc2ccccc2C1=NO	6.05	5.22
O=C1Nc2ccc(S(=O)(=O)O)cc2/C1=C1/Nc2ccccc2C1=O		< 5.00
